Laboratory results: ChEMBL document CHEMBL4342520, “Discovery, Structure-Activity Relationship, and Biological Activity of Histone-Competitive Inhibitors of Histone Acetyltransferases P300/CBP” (J Med Chem, 2020)
Active and inactive are the calls of the source.

Sequences of proteins named here, by UniProt entry; tags and fusion partners are left off.
UniProt Q09472, whole entry, looked up: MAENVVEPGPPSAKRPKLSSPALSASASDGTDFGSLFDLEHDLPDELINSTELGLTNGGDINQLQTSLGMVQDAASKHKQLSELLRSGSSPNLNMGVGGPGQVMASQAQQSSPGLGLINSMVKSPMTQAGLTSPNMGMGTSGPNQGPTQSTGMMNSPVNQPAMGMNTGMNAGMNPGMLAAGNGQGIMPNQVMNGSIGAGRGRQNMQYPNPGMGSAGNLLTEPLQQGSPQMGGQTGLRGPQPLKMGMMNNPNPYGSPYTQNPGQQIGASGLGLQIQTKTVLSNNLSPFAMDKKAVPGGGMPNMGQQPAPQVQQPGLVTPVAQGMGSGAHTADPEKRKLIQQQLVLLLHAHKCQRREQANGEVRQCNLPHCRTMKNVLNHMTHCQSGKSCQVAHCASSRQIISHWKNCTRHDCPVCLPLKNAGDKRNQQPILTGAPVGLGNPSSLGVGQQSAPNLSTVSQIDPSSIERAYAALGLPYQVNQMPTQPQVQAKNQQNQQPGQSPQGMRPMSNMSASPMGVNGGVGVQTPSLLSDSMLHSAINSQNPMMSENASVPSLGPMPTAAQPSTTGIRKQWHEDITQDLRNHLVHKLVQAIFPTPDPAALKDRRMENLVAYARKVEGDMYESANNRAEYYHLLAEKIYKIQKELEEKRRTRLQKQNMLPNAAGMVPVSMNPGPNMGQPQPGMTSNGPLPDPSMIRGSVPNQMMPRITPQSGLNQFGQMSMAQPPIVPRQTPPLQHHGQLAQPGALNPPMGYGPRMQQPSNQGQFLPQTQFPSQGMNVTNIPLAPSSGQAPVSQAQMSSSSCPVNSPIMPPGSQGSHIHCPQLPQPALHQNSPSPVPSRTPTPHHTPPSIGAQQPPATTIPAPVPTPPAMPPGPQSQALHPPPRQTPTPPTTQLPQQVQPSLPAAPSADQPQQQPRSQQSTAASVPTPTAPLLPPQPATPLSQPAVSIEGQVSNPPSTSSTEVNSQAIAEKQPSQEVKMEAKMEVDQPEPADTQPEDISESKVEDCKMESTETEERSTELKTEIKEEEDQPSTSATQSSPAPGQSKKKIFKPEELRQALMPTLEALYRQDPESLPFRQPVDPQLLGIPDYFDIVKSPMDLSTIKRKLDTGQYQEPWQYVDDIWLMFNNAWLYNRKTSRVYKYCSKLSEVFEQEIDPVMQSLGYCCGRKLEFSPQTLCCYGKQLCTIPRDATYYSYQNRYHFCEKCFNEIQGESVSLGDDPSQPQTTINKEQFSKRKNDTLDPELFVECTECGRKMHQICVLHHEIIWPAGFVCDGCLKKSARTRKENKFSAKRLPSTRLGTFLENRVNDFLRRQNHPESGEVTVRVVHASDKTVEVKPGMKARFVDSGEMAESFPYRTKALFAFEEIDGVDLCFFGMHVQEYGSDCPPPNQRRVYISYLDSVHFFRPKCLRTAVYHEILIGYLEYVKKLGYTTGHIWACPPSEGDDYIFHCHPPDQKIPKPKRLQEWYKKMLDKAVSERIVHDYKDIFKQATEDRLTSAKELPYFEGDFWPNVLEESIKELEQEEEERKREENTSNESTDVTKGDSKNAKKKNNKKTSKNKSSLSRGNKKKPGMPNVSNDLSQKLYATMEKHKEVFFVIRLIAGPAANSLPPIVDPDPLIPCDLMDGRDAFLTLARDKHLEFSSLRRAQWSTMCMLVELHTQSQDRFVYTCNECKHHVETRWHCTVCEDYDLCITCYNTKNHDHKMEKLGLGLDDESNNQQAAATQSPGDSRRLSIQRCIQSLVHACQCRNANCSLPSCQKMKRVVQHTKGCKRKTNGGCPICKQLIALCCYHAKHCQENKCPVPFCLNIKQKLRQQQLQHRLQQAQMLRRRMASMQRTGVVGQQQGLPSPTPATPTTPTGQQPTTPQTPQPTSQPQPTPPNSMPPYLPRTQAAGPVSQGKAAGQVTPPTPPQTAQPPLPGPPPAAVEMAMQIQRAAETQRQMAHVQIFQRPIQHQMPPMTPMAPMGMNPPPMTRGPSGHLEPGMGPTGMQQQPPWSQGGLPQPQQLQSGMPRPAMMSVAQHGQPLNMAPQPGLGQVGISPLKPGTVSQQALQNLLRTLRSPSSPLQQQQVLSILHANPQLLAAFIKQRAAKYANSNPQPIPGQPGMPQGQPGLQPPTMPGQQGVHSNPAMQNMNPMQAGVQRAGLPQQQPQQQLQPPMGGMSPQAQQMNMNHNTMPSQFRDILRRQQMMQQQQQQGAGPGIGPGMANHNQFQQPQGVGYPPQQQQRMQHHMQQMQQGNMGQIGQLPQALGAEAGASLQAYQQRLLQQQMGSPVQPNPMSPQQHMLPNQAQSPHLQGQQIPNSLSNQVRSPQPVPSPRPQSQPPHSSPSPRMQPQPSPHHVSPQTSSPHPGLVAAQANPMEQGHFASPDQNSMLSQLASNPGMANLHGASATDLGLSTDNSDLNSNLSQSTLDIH
UniProt Q92793, whole entry, looked up: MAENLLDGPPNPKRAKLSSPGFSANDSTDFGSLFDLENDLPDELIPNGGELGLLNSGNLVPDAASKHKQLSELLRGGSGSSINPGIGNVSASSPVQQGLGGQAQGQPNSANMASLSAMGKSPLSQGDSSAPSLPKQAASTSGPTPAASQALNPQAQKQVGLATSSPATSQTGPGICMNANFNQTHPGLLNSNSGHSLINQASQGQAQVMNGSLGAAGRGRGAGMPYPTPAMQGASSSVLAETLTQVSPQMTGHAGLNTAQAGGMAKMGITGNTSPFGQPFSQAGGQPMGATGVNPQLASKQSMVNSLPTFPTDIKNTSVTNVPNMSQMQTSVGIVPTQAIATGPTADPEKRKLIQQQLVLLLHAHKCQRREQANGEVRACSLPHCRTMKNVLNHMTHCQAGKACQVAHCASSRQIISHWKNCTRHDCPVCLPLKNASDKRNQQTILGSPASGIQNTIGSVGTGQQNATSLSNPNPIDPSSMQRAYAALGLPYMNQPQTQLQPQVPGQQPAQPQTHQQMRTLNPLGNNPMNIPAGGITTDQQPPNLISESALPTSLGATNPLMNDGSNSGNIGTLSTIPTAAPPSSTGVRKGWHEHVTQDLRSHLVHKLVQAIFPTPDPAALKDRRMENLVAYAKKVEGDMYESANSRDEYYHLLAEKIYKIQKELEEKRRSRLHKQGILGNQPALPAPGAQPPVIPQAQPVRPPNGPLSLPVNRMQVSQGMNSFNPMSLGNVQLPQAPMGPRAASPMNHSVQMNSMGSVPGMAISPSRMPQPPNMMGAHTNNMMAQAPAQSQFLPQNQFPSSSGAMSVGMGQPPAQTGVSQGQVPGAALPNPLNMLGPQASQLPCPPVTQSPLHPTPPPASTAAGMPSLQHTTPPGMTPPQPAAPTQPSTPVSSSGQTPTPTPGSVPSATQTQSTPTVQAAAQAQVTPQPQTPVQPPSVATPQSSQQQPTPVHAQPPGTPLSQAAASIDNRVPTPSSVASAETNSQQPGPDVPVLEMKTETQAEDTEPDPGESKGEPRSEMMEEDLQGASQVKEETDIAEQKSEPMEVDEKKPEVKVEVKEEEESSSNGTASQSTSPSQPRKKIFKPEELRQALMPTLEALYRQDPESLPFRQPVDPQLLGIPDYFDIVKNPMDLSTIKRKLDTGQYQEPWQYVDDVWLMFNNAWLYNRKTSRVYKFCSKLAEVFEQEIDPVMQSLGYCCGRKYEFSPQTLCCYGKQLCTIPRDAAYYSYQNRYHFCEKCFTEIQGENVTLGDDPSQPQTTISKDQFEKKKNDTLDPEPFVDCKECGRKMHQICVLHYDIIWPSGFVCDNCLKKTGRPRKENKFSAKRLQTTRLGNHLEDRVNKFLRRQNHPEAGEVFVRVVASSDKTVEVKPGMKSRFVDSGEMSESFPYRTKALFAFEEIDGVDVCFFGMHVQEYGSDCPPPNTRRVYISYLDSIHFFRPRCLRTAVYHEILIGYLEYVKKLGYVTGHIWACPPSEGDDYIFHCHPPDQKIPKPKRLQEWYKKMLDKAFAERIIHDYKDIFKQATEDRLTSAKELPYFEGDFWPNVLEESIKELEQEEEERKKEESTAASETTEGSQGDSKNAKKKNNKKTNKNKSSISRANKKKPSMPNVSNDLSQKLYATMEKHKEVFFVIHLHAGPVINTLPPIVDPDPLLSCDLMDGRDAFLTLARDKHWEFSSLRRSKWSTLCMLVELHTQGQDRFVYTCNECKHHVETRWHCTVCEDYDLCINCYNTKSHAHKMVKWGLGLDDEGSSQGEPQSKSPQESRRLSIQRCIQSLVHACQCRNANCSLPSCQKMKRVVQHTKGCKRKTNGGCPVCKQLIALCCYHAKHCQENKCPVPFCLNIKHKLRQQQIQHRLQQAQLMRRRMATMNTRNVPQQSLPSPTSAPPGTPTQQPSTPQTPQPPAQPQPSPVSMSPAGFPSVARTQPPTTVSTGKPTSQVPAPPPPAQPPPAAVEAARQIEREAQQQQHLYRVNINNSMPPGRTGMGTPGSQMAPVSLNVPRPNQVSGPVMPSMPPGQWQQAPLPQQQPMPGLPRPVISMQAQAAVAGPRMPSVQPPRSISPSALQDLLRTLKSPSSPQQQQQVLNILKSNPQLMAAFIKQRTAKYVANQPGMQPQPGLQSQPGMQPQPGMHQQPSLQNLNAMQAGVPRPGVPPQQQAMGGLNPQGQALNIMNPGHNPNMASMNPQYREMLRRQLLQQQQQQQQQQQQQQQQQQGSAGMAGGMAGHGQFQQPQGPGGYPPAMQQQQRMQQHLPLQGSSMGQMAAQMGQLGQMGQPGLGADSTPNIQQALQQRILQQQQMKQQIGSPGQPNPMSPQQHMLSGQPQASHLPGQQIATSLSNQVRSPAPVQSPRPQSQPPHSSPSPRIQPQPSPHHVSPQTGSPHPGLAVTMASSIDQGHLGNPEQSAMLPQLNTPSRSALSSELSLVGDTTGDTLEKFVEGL

Assays:
Conditions in all cases: 0.08 to 10 uM
[1] = target: T1, CREB-binding protein/Histone acetyltransferase p300 (Homo sapiens) (UniProt Q09472+Q92793)
[2] = target: T1, CREB-binding protein/Histone acetyltransferase p300 (Homo sapiens); remark: listed apart in the source
[3] = target: T1, CREB-binding protein/Histone acetyltransferase p300 (Homo sapiens); remark: listed apart in the source

Measured: inhibition

CNC(=O)Nc1ccc2c(c1)CC[C@@]21OC(=O)N(CC(=O)N(Cc2ccc(F)cc2)[C@@H](C)C(F)(F)F)C1=O
active: [1] | [2] | [3]
